Conditions: buffer, pH 7.4

Compound | Therm_solubility [µM]
C=C(C)c1cc2c(=O)c3cc(C(=O)O)c(N)nc3oc2cn1 | 372.6
C=C(C)c1ccc2oc3nc(N)c(C(=O)O)cc3c(=O)c2c1 | 258.8
Nc1nc2oc3ccc(N4CCOCC4)cc3c(=O)c2cc1-c1nnn[nH]1 | 915.7
CC(C)c1ccc2oc3nc(N)c(C(=O)O)cc3c(=O)c2c1 [AMLEXANOX] | 171.7

From ChEMBL document CHEMBL4270652, “Design, synthesis, and biological activity of substituted 2-amino-5-oxo-5H-chromeno[2,3-b]pyridine-3-carboxylic acid derivatives as inhibitors of the inflammatory kinases TBK1 and IKKε for the treatment of obesity” (Bioorg Med Chem, 2018)
